From patent US6307035, “BRCA1 associated polynucleotide (BAP-1) and uses therefor” (The Wistar Institute of Anatomy and Biology, dated 2001)

Target: full length BRCA1 (human, UniProt P38398)
Assay: GST pull-down, SDS-PAGE and fluorography

B1: GST (glutathione-S-transferase alone) (other)
chain: MSPILGYWKIKGLVQPTRLLLEYLEEKYEEHLYERDEGDKWRNKKFELGLEFPNLPYYIDGDVKLTQSMAIIRYIADKHNMLGGCPKERAEISMLEGAVLDIRYGVSRIAYSKDFETLKVDFLSKLPEMLKMFEDRLCHKTYLNGDHVTHPDFMLYDALDVVLYMDPMCLDAFPKLVCFKKRIEAIPQIDKYLKSSKYIAWPLQGWQATFGGGDHPPK
binding result: no binding
